Only a part is listed here, and it is no random draw. Calls of active or inactive are those of the source.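 The calls were made as follows: active = response above a set limit, near 3 SD of response in nonfluorescent compounds (cut at about 42% in these data); inactive = the rest.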

Sequences of proteins named here, by UniProt entry; tags and fusion partners are left off.
UniProt P07550, whole entry: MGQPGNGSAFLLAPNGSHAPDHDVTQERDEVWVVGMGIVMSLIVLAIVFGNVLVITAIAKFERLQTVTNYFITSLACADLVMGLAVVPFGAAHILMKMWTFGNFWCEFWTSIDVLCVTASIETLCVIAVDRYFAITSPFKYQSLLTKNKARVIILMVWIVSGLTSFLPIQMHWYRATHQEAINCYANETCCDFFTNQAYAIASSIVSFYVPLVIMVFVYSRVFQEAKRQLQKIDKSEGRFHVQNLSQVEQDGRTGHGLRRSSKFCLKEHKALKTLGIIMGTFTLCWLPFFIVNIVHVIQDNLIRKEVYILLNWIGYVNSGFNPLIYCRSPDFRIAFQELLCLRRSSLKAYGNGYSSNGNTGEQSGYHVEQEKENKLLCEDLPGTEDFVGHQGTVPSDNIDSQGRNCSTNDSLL

This assay deals with Beta-2 adrenergic receptor (Homo sapiens) (UniProt P07550). Briefly: beta2AR agonists driving receptor internalization, primary screen, cell-based, FAP fluorogen, flow cytometry (AID 504454). To be noted: Am2.2-beta2AR cells, active compounds read high, concentration not given here. In general terms: In flow cytometry, cells or beads pass a laser one at a time.
Regarding `Cc1ccccc1NC1(C#N)CCN(Cc2ccccc2)CC1`, the response is inactive: -11.2%. With `CCN1CCC(Nc2cccc(F)c2)CC1`, the response was inactive: 5.06%. With `O=C(NCC1(N2CCCCC2)CCCCC1)c1ccco1`, the response was inactive: -5.87%. For `CN(C)c1ccc(C(=O)NCC2(N3CCCCC3)CCCCC2)cc1` the value was inactive: 0.68%. For `Cn1c(=O)[nH]cc(N(CCCl)CCCl)c1=O` the value was inactive: -5.71%; for `COc1cc(OC)cc(C(=O)NCC2(N3CCCCC3)CCCCC2)c1`, inactive: 4.6%; for `CC(=O)N(c1ccccc1)C1CCNCC1`, inactive: -3.71%. For `Cc1ccc(NC2(C#N)CCN(Cc3ccccc3)CC2)cc1` the value was inactive: -0.69%; for `Cc1ccc(C(=O)NCC2(N3CCCCC3)CCCCC2)o1`, inactive: 3.4%; for `Fc1ccccc1NC1CCN(Cc2ccccc2)CC1`, inactive: -5.89%.

Take `CCC(CO)(C(=O)OC1CN2CCC1CC2)c1ccccc1` (centres undefined): the response was inactive: 3.16%. Consider `COc1cccc(C(=O)N(c2cc(C)cc(C)c2)C2CCN(C(=O)OC(C)(C)C)CC2)c1`, for which the response was inactive: -22.9%. With `COc1cc(OC)cc(C(=O)NCC2(N3CCOCC3)CCCCC2)c1`, the response was inactive: -1.16%. For `CN1CCC(Nc2ccc(Cl)cc2)CC1` the value was inactive: -3.68%; for `CCOc1ncccc1C(=O)NCC1(N2CCOCC2)CCCCC1`, inactive: -5.24%.

For the compound `CN1CCC(Nc2ccc(F)c(Cl)c2)CC1`, the response was inactive: 4.82%. For the compound `CCCOc1ccc(C(=O)NCC2(N(C)C)CCCCC2)cc1`, the response was inactive: -15%. For `CC(C)(C)OC(=O)N1CCC(Nc2ccccc2)CC1` the value was inactive: 2.65%; for `O=C(O)C1(Nc2ccccc2)CCN(Cc2ccccc2)CC1`, inactive: -7.66%. Regarding `N/C(=N\O)c1c(N)no[n+]1[O-]`, the response is inactive: -6.2%. Under `CCOC(=O)N1CCC(Nc2ccc(C)cc2)CC1` stands inactive: -1.01%; under `O=C(OC1CN2CCC1CC2)C1c2ccccc2C=Cc2ccccc21` (centres undefined), inactive: -3%; under `O=C(NCC1(N2CCOCC2)CCCCC1)c1cc(Br)ccc1Cl`, inactive: 9.15%. Under `COc1cc(C(=O)NCC2(N3CCOCC3)CCCCC2)cc(OC)c1C` stands inactive: -0.34%. Under `COc1ccc(C(=O)NCC2(N3CCOCC3)CCCCC2)cc1OC` stands inactive: -3.96%; under `c1ccc(CN2CCC(Nc3ccccc3)CC2)cc1`, inactive: 6.44%; under `CCCN1CCC(Nc2cc(OC)cc(OC)c2)CC1`, inactive: 4.81%. For the compound `Cc1cc(N(CCCl)CCCl)ccc1C=O`, the response was inactive: -31.8%.

With `CN(C)C1(CNC(=O)c2cccc(C#N)c2)CCCCC1`, the response was inactive: -5.98%.

In the case of `CC(C)(C)OC(=O)N1CCC(N(C(=O)c2ccccc2)c2ccc(Cl)cc2)CC1`, the response was inactive: -1.22%. Take `N#Cc1ccc(C(=O)NCC2(N3CCCCC3)CCCCC2)cc1`: the response is inactive: 1.09%. Regarding `O=C(NCC1(N2CCCCC2)CCCCC1)c1cccc(C(F)(F)F)c1`, the response was inactive: 7.27%. For `COc1ccc(NC2CCN(C(=O)OC(C)(C)C)CC2)cc1` the value was inactive: -3.64%; for `CC(C)c1ccc(C(=O)NCC2(N3CCOCC3)CCCCC2)cc1`, inactive: -4.19%. Under `CN1CCN(CCOC(=O)C(O)(c2ccccc2)c2ccccc2)CC1` stands inactive: 2.09%; under `O=C(NCC1(N2CCOCC2)CCCCC1)c1cc(=O)[nH]c2ccccc12`, inactive: -0.57%; under `COc1cc(C(=O)NCC2(N3CCCCC3)CCCCC2)ccc1OC(F)F`, inactive: -1.67%. With `O=C(NCC1(N2CCCCC2)CCCCC1)c1ccc(OC(F)F)cc1`, the response was inactive: 5.16%.

In the case of `O=C(NCC1(N2CCCCC2)CCCCC1)c1cccc([N+](=O)[O-])c1`, the response is inactive: -10.8%. Under `CSc1ccc(C(=O)NCC2(N3CCOCC3)CCCCC2)cc1` stands inactive: -3.48%; under `CCN1CCC(Nc2ccc(Cl)cc2)CC1`, inactive: 7.15%; under `N#CC1(Nc2ccccc2)CCN(CCc2ccccc2)CC1`, inactive: 1.25%. Under `CN1CCC(Nc2cccc(F)c2)CC1` stands inactive: -3.96%; under `O=C(NCC1(N2CCCCC2)CCCCC1)c1cncc(Br)c1`, inactive: 7.37%; under `CCCOc1ccc(C(=O)NCC2(N(C)C)CCCCC2)cc1OC`, inactive: -9.47%. For `COc1ccc(CN(CCCl)CCCl)cc1Cl` the value was inactive: 11.6%.

Regarding `CN(C)c1cccc(C(=O)NCC2(N3CCCCC3)CCCCC2)c1`, the response was inactive: 1.72%. Consider `CC(C)c1ccc(NC2CCN(C(=O)OC(C)(C)C)CC2)cc1`, for which the response is inactive: -0.5%. For `COc1cc(OC)c(C(=O)NCC2(N(C)C)CCCCC2)cc1OC` the value was inactive: -3.49%; for `O=C(NCC1(N2CCOCC2)CCCCC1)c1cc(F)c(F)cc1Cl`, inactive: -7.4%; for `O=C(NCC1(N2CCOCC2)CCCCC1)c1cc2ccccc2o1`, inactive: -5.15%. For `O=C(NCC1(N2CCCCC2)CCCCC1)c1ccc(Cl)nc1` the value was inactive: 0.04%. Under `Cc1cc(C)cc(N(C(=O)c2ccccc2)C2CCN(C(=O)OC(C)(C)C)CC2)c1` stands inactive: -7.97%; under `CCOC(=O)N1CCC(Nc2ccc(OC)cc2)CC1`, inactive: 3.53%. As for `O=C(NCC1(N2CCCCC2)CCCCC1)c1ccc(Cl)s1`, the response is inactive: 5.14%. As to `N#CC1(Nc2ccccc2)CCN(Cc2ccccc2)CC1`, the response is inactive: -4.98%. Under `O=C(OC1CN2CCC1CC2)C1c2ccccc2Oc2ccccc21` (centres undefined) stands inactive: -0.08%. Turning to `COc1ccc(Cl)cc1C(=O)NCC1(N2CCOCC2)CCCCC1`, the response was inactive: 0.03%.

On to `O=C(NCC1(N2CCCCC2)CCCCC1)c1ccc(=O)[nH]c1`, for which the response is inactive: 0.77%.

Take `O=C(NCC1(N2CCCCC2)CCCCC1)c1cccs1`: the response was inactive: -20.2%. Under `COc1ccc(C(=O)NCC2(N3CCCCC3)CCCCC2)cc1` stands inactive: 10.6%; under `COc1ccc(C(=O)NCC2(N3CCCCC3)CCCCC2)c(OC)c1OC`, inactive: 1.49%; under `CC(C)(C)OC(=O)N1CCC(N(C(=O)c2ccccc2)c2ccc(F)cc2)CC1`, inactive: 0.16%.

On to `CSc1ccccc1C(=O)NCC1(N2CCCCC2)CCCCC1`, for which the response is inactive: 13.9%.

Regarding `Cc1cccc(NC2(C#N)CCN(Cc3ccccc3)CC2)c1`, the response was inactive: -3.96%. Under `CCOC(=O)N1CCC(Nc2cccc(C)c2)CC1` stands inactive: 3.16%. For `COc1cc(C(=O)NCC2(N(C)C)CCCCC2)ccc1OC(F)F` the value was inactive: -10.4%. For `CCOc1ccc(C)cc1CN(CCCl)CCCl` the value was inactive: 4.74%; for `O=C1CCN(Cc2ccccc2)CC1`, inactive: -0.49%. As for `CCCCOc1ccc(C(=O)NCC2(N3CCOCC3)CCCCC2)cc1`, the response is inactive: -2%. Consider `O=P1(N(CCCl)CCCl)SCCCS1`, for which the response was inactive: 7.71%.

As for `O=C(NCC1(N2CCCCC2)CCCCC1)c1ccc(F)cc1`, the response was inactive: -3.93%. With `CCOC(=O)N1CCC(Nc2ccc(F)cc2)CC1`, the response was inactive: 4.4%. `COc1ccc(NC2CCN(CCc3ccccc3)CC2)c(OC)c1`: the response was inactive: -1.08%.

These data come from PubChem BioAssay AID504454 (NMMLSC, 2011).
